Results taken from patent US12528818B2, “Compositions and methods for inhibition of RAS” (Leidos Biomedical Research, Inc., priority 2021, dated 2026).

What was measured:
[1] = molecular target: GDP-loaded KRAS4b (amino acids 1-169) G12C/C118S protein (Homo sapiens, UniProt P01116, C118S/G12C); test: Covalent cysteine 12 modification by MALDI-TOF MS, GDP-loaded KRAS G12C; format: biochemical; conditions: 15 minutes reaction time, compound 95 or later using 1 μM proteins
[2] = molecular target: Avi-KRAS G12C (1-169) GppNHp/RAF1 RBD-3xFLAG (52-151) (Homo sapiens, UniProt P01116, G12C); test: biochemical; conditions: Raf1-GppNHp-KRAS G12C disruption, Raf1 RBD-KRAS G12C-GppNHp disruption assay IC50
[3] = molecular target: GppNHp-loaded KRAS4b (amino acids 1-169) G12C/C118S protein (Homo sapiens, UniProt P01116, C118S/G12C); test: Covalent cysteine 12 modification by MALDI-TOF MS, GppNHp-loaded KRAS G12C; format: biochemical; conditions: 15 minutes reaction time, compound 95 or later using 1 μM proteins

Row | Structure (SMILES) | GDP-KRAS G12C percent of modification [1] | IC50 [2] | GppNHp-KRAS G12C percent of modification [3]
1 | C=CC(=O)N1CCN(c2nc(OC[C@@H]3CC(F)(F)CN3C)nc3c(F)c(-c4ccc(F)c5sc(N)nc45)c(C(F)(F)F)cc23)CC1 [Compound 131] | B (50≤percent of modification <70%) | 0.5 to 5 µM | D (percent of modification <10%)
2 | CC#CC(=O)N1CCN(c2nc(OC[C@@H]3CC(F)(F)CN3C)nc3c(F)c(-c4ccc(F)c5sc(N)nc45)c(C(F)(F)F)cc23)CC1 [Compound 132] | C (10%≤percent of modification <50%) | > 20 µM | D (percent of modification <10%)
3 | CC#CC(=O)N1CCN(c2nc(OCC34CCCN3CCC4)nc3c(F)c(-c4ccc(F)c5sc(N)nc45)c(Cl)cc23)CC1 [Compound 133] | A (percent of modification ≥70%) | 0.5 to 5 µM | D (percent of modification <10%)
4 | CC#CC(=O)N1CCN(c2nc(OCC34CCCN3CCC4)nc3c(F)c(-c4ccc(F)c5sc(N)nc45)c(C(F)(F)F)cc23)CC1 [Compound 134] | B (50≤percent of modification <70%) | 0.5 to 5 µM | D (percent of modification <10%)
5 | C=CC(=O)N1CC[C@@H]2[C@H]1CN2c1nc(OC[C@@H]2C[C@@H](F)CN2C)nc2c(F)c(-c3ccc(F)c4sc(N)nc34)c(C(F)(F)F)cc12 [Compound 138] | A (percent of modification ≥70%) | 0.5 to 5 µM | D (percent of modification <10%)
6 | C=CC(=O)N1CC(N(CCC#N)c2nc(OC[C@@H]3CCCN3C)nc3c(F)c(-c4ccc(F)c5sc(N)nc45)c(Cl)cc23)C1 [Compound 141] | A (percent of modification ≥70%) | 0.5 to 5 µM | D (percent of modification <10%)
7 | C=CC(=O)N1CCN(c2nc(OC[C@@H]3CCCN3C)nc3c(F)c(-c4ccc(F)c5sc(N)nc45)c(C4CCC4)cc23)CC1 [Compound 142] | D (percent of modification <10%) | > 20 µM | D (percent of modification <10%)
8 | C=CC(=O)N1CCN(c2nc(OC[C@@H]3CCCN3C)nc3c(F)c(-c4ccc(F)c5sc(N)nc45)c(-c4cnn(C)c4)cc23)CC1 [Compound 143] | A (percent of modification ≥70%) | > 20 µM | D (percent of modification <10%)
9 | C=CC(=O)N1CCN(c2nc(OC[C@@H]3CCCN3C)nc3c(F)c(-c4ccc(F)c5sc(N)nc45)c(CC#N)cc23)CC1 [Compound 144] | A (percent of modification ≥70%) | > 20 µM | D (percent of modification <10%)
10 | C=CC(=O)N1CC(Nc2nc(OCC34CCCN3CC(F)(F)C4)nc3c(F)c(-c4ccc(F)c5sc(N)nc45)c(Cl)cc23)C1 (stereo not drawn) [Compound 145] | C (10%≤percent of modification <50%) | 0.5 to 5 µM | D (percent of modification <10%)
11 | C=CC(=O)N1CCN(c2nc(OC[C@@H]3CCCN3C)nc3c(F)c(-c4ccc(F)c5sc(N)nc45)c(CC)cc23)CC1 [Compound 146] | A (percent of modification ≥70%) | 0.5 to 5 µM | D (percent of modification <10%)
12 | CC#CC(=O)N1CCN(c2nc(OC[C@]34CCCN3C[C@H](F)C4)nc3c(F)c(-c4ccc(F)c5sc(N)nc45)c(C(F)(F)F)cc23)CC1 [Compound 149] | B (50≤percent of modification <70%) | 0.5 to 5 µM | D (percent of modification <10%)
13 | C=CC(=O)N1CCN(c2nc(OC[C@]34CCCN3C[C@H](F)C4)nc3c(F)c(-c4ccc(F)c5sc(N)nc45)c(C(F)(F)F)cc23)CC1 [Compound 150] | B (50≤percent of modification <70%) | 0.5 to 5 µM | C (10%≤percent of modification <50%)
14 | C=CC(=O)N1CC(N(c2nc(OCC34CCCN3CCC4)nc3c(F)c(-c4ccc(F)c5sc(N)nc45)c(Cl)cc23)C2CC2)C1 [Compound 151] | A (percent of modification ≥70%) | 0.5 to 5 µM | D (percent of modification <10%)
15 | C=CC(=O)N1CC(N(c2nc(OCC34CCCN3CCC4)nc3c(F)c(-c4ccc(F)c5sc(N)nc45)c(C(F)(F)F)cc23)C2CC2)C1 [Compound 152] | A (percent of modification ≥70%) | 0.5 to 5 µM | C (10%≤percent of modification <50%)
16 | C=CC(=O)N1CCN(c2nc(OC[C@@H]3CCCN3CCF)nc3c(F)c(-c4ccc(F)c5sc(N)nc45)c(C(F)(F)F)cc23)CC1 [Compound 153] | B (50≤percent of modification <70%) | 0.5 to 5 µM | D (percent of modification <10%)
17 | CC#CC(=O)N1CCN(c2nc(OC[C@@H]3CCCN3CCF)nc3c(F)c(-c4ccc(F)c5sc(N)nc45)c(C(F)(F)F)cc23)CC1 [Compound 154] | B (50≤percent of modification <70%) | > 20 µM | D (percent of modification <10%)
18 | C=CC(=O)N1CCN(c2nc(OC[C@@H]3CCCN3CC(F)F)nc3c(F)c(-c4ccc(F)c5sc(N)nc45)c(C(F)(F)F)cc23)CC1 [Compound 156] | C (10%≤percent of modification <50%) | > 20 µM | D (percent of modification <10%)
19 | CC#CC(=O)N1CCN(c2nc(OC[C@@H]3CCCN3CC(F)F)nc3c(F)c(-c4ccc(F)c5sc(N)nc45)c(C(F)(F)F)cc23)CC1 [Compound 158] | C (10%≤percent of modification <50%) | > 20 µM | D (percent of modification <10%)
20 | C=CC(=O)N1C2CC1CN(c1nc(OCC34CCCN3CCC4)nc3c(F)c(-c4ccc(F)c5sc(N)nc45)c(Cl)cc13)C2 [Compound 161] | A (percent of modification ≥70%) | 5 to 20 µM | D (percent of modification <10%)
21 | C=CC(=O)N1CCN(c2nc(OCC34CCCN3CCC4)nc3c(F)c(-c4ccc(F)c5oc(N)nc45)c(C(F)(F)F)cc23)CC1 [Compound 162, 1-(4-(7-(2-amino-7-fluorobenzo[d]oxazol-4-yl)-8-fluoro-2-((tetrahydro-1H-pyrrolizin-7a(5H)-yl)methoxy)-6-(trifluoromethyl)quinazolin-4-yl)piperazin-1-yl)prop-2-en-1-one] | A (percent of modification ≥70%) | 0.5 to 5 µM | C (10%≤percent of modification <50%)
22 | C=CC(=O)N1CC(C)(Nc2nc(OCC34CCCN3CCC4)nc3c(F)c(-c4ccc(F)c5sc(N)nc45)c(Cl)cc23)C1 [Compound 164] | B (50≤percent of modification <70%) | 0.5 to 5 µM | C (10%≤percent of modification <50%)
23 | C=CC(=O)N1CCN(c2nc(OC[C@]34CCCN3C[C@H](F)C4)nc3c(F)c(-c4ccc(F)c5sc(N)nc45)c(C(F)(F)F)cc23)C[C@@H]1C [Compound 165] | A (percent of modification ≥70%) | < 0.5 µM | C (10%≤percent of modification <50%)
24 | C=CC(=O)N1CC[C@@H]2[C@H]1CN2c1nc(OCC23CCCN2CCC3)nc2c(F)c(-c3ccc(F)c4sc(N)nc34)c(C(F)(F)F)cc12 [Compound 166] | A (percent of modification ≥70%) | < 0.5 µM | C (10%≤percent of modification <50%)
25 | C=CC(=O)N(C)C1CN(c2nc(OCC34CCCN3CCC4)nc3c(F)c(-c4ccc(F)c5sc(N)nc45)c(Cl)cc23)C1 [Compound 167] | A (percent of modification ≥70%) | 0.5 to 5 µM | C (10%≤percent of modification <50%)
26 | C=CC(=O)N1CC(N(C)c2nc(OC[C@]34CCCN3C[C@H](F)C4)nc3c(F)c(-c4ccc(F)c5sc(N)nc45)c(Cl)cc23)C1 [Compound 169] | B (50≤percent of modification <70%) | 0.5 to 5 µM | C (10%≤percent of modification <50%)
27 | CC#CC(=O)N1CCN(c2nc(OCC34CCCN3CC(C)(C)C4)nc3c(F)c(-c4ccc(F)c5sc(N)nc45)c(C(F)(F)F)cc23)CC1 (stereo not drawn) [Compound 170] | B (50≤percent of modification <70%) | 5 to 20 µM | D (percent of modification <10%)
28 | C=CC(=O)N1CCN(c2nc(OCC34CCCN3CC(C)(C)C4)nc3c(F)c(-c4ccc(F)c5sc(N)nc45)c(C(F)(F)F)cc23)CC1 (stereo not drawn) [Compound 171, 1-(4-(7-(2-amino-7-fluorobenzo[d]thiazol-4-yl)-2-((2,2-dimethyltetrahydro-1H-pyrrolizin-7a(5H)-yl)methoxy)-8-fluoro-6-(trifluoromethyl)quinazolin-4-yl)piperazin-1-yl)prop-2-en-1-one] | A (percent of modification ≥70%) | 0.5 to 5 µM | C (10%≤percent of modification <50%)
29 | CC#CC(=O)N(C)C1CN(c2nc(OCC34CCCN3CCC4)nc3c(F)c(-c4ccc(F)c5sc(N)nc45)c(Cl)cc23)C1 [Compound 172] | B (50≤percent of modification <70%) | 0.5 to 5 µM | D (percent of modification <10%)
